Publication PMC10131585, “Computational design of a cyclic peptide that inhibits the CTLA4 immune checkpoint” (RSC Medicinal Chemistry, 2023)

Details: inferred by the authors from failed/successful synthesis and number of charged/hydrophobic residues

Substance: cyc-SIITVLTPTGWVAAEFS (head to tail) [Peptide 12]
- Solubility (in words): low solubility
